## AlphaSeq binding of Ab-14 heavy chain variants to a spike HR2 peptide

The target is the same throughout: PDVDLGDISGINAS, from the HR2 region of SARS-CoV-2 spike.

Parent scFv Ab-14: VH joined to VL by three GGGGS repeats. Changes lie in the heavy chain CDRs alone.
VH: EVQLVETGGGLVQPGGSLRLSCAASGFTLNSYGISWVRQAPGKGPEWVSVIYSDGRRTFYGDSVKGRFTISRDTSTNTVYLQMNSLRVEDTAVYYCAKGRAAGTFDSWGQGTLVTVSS
VL: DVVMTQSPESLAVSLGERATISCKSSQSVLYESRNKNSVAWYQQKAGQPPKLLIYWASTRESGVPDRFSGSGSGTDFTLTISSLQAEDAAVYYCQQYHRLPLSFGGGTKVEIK

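Phage display of a naive human antibody library on the peptide gave the parent. AAYL49 was designed without a model: most single CDR substitutions and a random sample of double and triple ones. Affinity was read by AlphaSeq, a pooled yeast mating assay with surface-displayed partners. Pairs that bind mate more often; barcode pairs of the diploids are counted by sequencing. A regression on co-assayed BCL2-family reference pairs converts the normalised counts of each replicate to an apparent Kd. Each pool was mated in three replicate cultures.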

Substitutions are numbered in sequence along the VH above, starting at 1 (not Kabat). Values are log10 of the apparent Kd in nM; lower means stronger binding. The mean shown is taken over the replicates in which the pair was detected. An entry "n.d." has no value in the source: the pair was not observed among the diploids in that replicate. This suggests poor binding but is not conclusive. Background: pairings of library AAYL49 with three empty control strains gave a value in 15% of cases (median 4.06, 5th percentile 2.83). Values in that range, when seen in few replicates, are hard to tell from nonspecific mating. Also given: how often the same scFv was detected with the empty control strains, with their mean in brackets.

changes	replicates, log10 nM	log10 Kd (nM), mean	signal with controls
A101I F105C	n.d. / n.d. / n.d.	n.d.	0 of 9
S31A A102G S107I	2.29 / 2.06 / 3.67	2.67	1 of 9 (3.20)
F27N S35E V64Y	n.d. / n.d. / n.d.	n.d.	1 of 9 (5.78)
L29S S53V	n.d. / n.d. / n.d.	n.d.	1 of 9 (4.91)
T104M	0.50 / 0.78 / 0.69	0.66	0 of 9
D54H G55R D62Q	n.d. / n.d. / n.d.	n.d.	0 of 9
Y32P I34L R56C	n.d. / n.d. / 5.68	5.68	1 of 9 (4.58)
Y60W A101I	n.d. / n.d. / n.d.	n.d.	1 of 9 (4.09)
T58W V64M R100S	3.48 / n.d. / n.d.	3.48	1 of 9 (3.68)
Y32H V50F	n.d. / n.d. / n.d.	n.d.	3 of 9 (3.74)
Y32M T58E G99R	n.d. / n.d. / n.d.	n.d.	1 of 9 (2.99)
I51V D54A R56K	n.d. / 2.64 / n.d.	2.64	1 of 9 (4.50)
F59Y G99E G103M	n.d. / n.d. / n.d.	n.d.	1 of 9 (3.42)
G26Q S31M T58P	n.d. / 3.73 / n.d.	3.73	1 of 9 (4.21)
G26L D62L	3.93 / 3.62 / 3.63	3.73	2 of 9 (3.92)
L29G N30S S31P	n.d. / n.d. / 4.08	4.08	2 of 9 (3.18)
R56M G99D	2.73 / 2.05 / 1.89	2.23	2 of 9 (3.70)
N30L D54P D106T	n.d. / n.d. / n.d.	n.d.	0 of 9
I34M S35K A101E	n.d. / n.d. / n.d.	n.d.	1 of 9 (3.88)
F27C V64K	n.d. / n.d. / 2.75	2.75	1 of 9 (4.41)
T28K G61E A101N	0.22 / 0.45 / 0.36	0.35	4 of 9 (4.46)
T28L Y32L S53P	n.d. / n.d. / n.d.	n.d.	0 of 9
F27E T58D R100W	n.d. / n.d. / n.d.	n.d.	1 of 9 (5.52)
T58F F105M	n.d. / 3.87 / 2.91	3.39	4 of 9 (3.75)
I34G V64N G99N	n.d. / n.d. / n.d.	n.d.	0 of 9
S31F S35V T58N	n.d. / 3.31 / n.d.	3.31	2 of 9 (3.57)
I51T G99K A102H	n.d. / n.d. / n.d.	n.d.	2 of 9 (4.33)
Y32W G61W	n.d. / n.d. / n.d.	n.d.	3 of 9 (3.96)
G26I I51L	n.d. / n.d. / 3.35	3.35	1 of 9 (4.75)
G26S F27R S31D	0.92 / 1.08 / 0.95	0.98	4 of 9 (4.82)
S31F	2.52 / 2.73 / 2.98	2.74	0 of 9
T58M G99N D106H	n.d. / n.d. / 3.29	3.29	0 of 9
F27E T104F D106M	0.46 / 0.65 / 0.98	0.69	1 of 9 (4.72)
G26S D54E K65W	n.d. / n.d. / n.d.	n.d.	6 of 9 (4.36)
G33D S63I A101I	n.d. / n.d. / n.d.	n.d.	0 of 9
S63L A102H T104Q	n.d. / n.d. / n.d.	n.d.	1 of 9 (4.62)
L29H Y52F R100W	4.40 / n.d. / n.d.	4.40	0 of 9
S35Y S63M G99T	n.d. / 5.12 / n.d.	5.12	5 of 9 (3.96)
F59L Y60V	n.d. / 2.87 / n.d.	2.87	1 of 9 (3.92)
Y52S S63H F105D	5.13 / 3.14 / n.d.	4.14	1 of 9 (3.68)
I51L R57M G61W	n.d. / n.d. / n.d.	n.d.	0 of 9
I34N S35R F105N	n.d. / n.d. / n.d.	n.d.	0 of 9
V50L G99E T104C	n.d. / 3.27 / n.d.	3.27	1 of 9 (3.27)
I51S Y52E A102S	5.53 / 5.17 / n.d.	5.35	5 of 9 (4.99)
R100A F105H D106Y	n.d. / n.d. / n.d.	n.d.	1 of 9 (3.56)
T28D R57K Y60S	3.26 / 2.76 / 3.17	3.06	3 of 9 (3.49)
Y52S R57Y	n.d. / n.d. / n.d.	n.d.	0 of 9
F27Q G99H	n.d. / n.d. / 5.48	5.48	3 of 9 (3.50)
G99F R100P D106M	n.d. / n.d. / n.d.	n.d.	1 of 9 (3.09)
G26A S35L Y60M	1.04 / 1.42 / 0.97	1.14	0 of 9

From the AlphaSeq antibody data of Engelhart et al. 2022 (doi:10.1038/s41597-022-01779-4), copy in the FLAb collection.